Assay: Mouse abdominal stretch (writhing) antinociception assay, icv and iv

## CN(C(=O)Cc1ccc(Cl)c(Cl)c1)[C@H](CN1CCCC1)c1cccc(NC(=O)C[C@H](N)C(=O)O)c1
Selectivity = iv/icv
  selectivity (iv/icv): 56.5
writhing, mice, icv, converted from nmol/mouse with 25 g/mouse
  icv - ED50: 11 nmol/kg
writhing, mice, iv, converted from nmol/mouse with 25 g/mouse
  iv - ED50: 628 nmol/kg

From US5804595A, “Kappa opioid receptor agonists” (Regents of the University of Minnesota, priority 1995, dated 1998)
